{
  "source": "patent US20050048646A1",
  "about": "“Method for inducing cytotoxic T lymphocyte” (MEDINET Co., Ltd., priority 2003, published 2005)",
  "system": "HLA-A2 (HLA-A*0201) antigen positive T cells",
  "assay": "Induction of EBV antigen-specific CD8-positive CTLs by co-culture, quantified with EBV tetramer by flow cytometry",
  "format": "cell-based, human",
  "details": "CD80-expressing cell line, IL-2 500 U/ml on third day vs no IL-2",
  "method": "The CD80-expressing cells of the MDA-MB/CD80G418 were co-cultured with lymphocytes and an Epstein-Barr virus (in the following, abbreviated as EBV) antigenic peptide, which was cancer antigenic peptide, thus confirming an induction of CTLs specific for the cancer antigen. For the above-noted EBV antigenic peptide, a peptide having the following amino acid sequence was used.\nThe condition of culturing these cells was as follows. • Temperature: 37° C. (5% CO2) • Used container: Falcon 24-well plate • Apparatus: CO2 incubator • Medium: AIM-V medium containing FCS or AB serum, or RPMI 1640 medium […]\nAfter culturing, the ratio of the CD8-positive antigen-specific CTLs in the T cells was measured using the EBV antigen-specific tetramer (T-Select MHC Tetramer: manufactured by Medical & Biological Laboratories Co., Ltd.) (measurement after the first stimulation). […] After 6 to 8 days of culturing, the ratio of the CD8-positive antigen-specific CTLs in the T cells was measured similarly using the peptide-specific tetramer (measurement after the second stimulation).\nThe amounts of inducing the CD8-positive CTLs specific for the EBV antigen after the first stimulation and the second stimulation were analyzed using the tetramer by the following procedure. […]\nThe proliferation ratio of CD8-positive EBV-specific CTLs was measured similarly to Example 2 except the following. […]",
  "data": [
    {"substance": "IL-2: cytokine added at 500 U/ml on the third day of culture", "values": [
      {"measurement": "effect of adding IL-2 on specific CTL induction efficiency", "value": "improved specific CTL induction efficiency"}
    ]}
  ]
}
